Test results as given in ChEMBL document CHEMBL3351252, “Design, synthesis, and structure-activity relationship studies of a series of [4-(4-carboxamidobutyl)]-1-arylpiperazines: insights into structural features contributing to dopamine D3 versus D2 receptor subtype selectivity” (J Med Chem, 2014).

Protein sequences, listed by entry. Tags and fused reporters are not part of them.
UniProt P35462, whole entry: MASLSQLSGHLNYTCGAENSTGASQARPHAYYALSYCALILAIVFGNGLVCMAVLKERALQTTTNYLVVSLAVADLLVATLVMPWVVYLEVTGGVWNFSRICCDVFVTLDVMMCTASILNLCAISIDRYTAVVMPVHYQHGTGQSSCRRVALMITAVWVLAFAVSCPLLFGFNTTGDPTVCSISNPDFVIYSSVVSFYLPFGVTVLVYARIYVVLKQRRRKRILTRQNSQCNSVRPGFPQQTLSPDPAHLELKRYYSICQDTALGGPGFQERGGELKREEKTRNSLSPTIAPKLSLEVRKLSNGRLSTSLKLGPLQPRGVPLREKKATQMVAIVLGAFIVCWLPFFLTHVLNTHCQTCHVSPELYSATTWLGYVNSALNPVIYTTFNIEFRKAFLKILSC

Experiments:
D(3) dopamine receptor [1] = biological target: T1, D(3) dopamine receptor (Homo sapiens, UniProt P35462); assay: Antagonist activity against D3R in human U2OS cells assessed as inhibition of (+)-PD128907-induced beta-arrestin translocation by beta-galactosidase based beta-arrestin recruitment assay; type: cell-based
D(3) dopamine receptor [2] = biological target: T1, D(3) dopamine receptor; assay: Displacement of [125I]IABN from human D3R expressed in HEK293 cell membranes by gamma counting method

CC(C)(C)c1nc(N2CCN(CCCCNC(=O)[C@H]3CC[C@H](c4ccccc4)CC3)CC2)cc(C(F)(F)F)n1
IC50 (D(3) dopamine receptor [1]): 6.8 nM
Ki (D(3) dopamine receptor [2]): 9.4 nM
